Measurements: US7572809B2, “Isoquinoline aminopyrazole derivatives” (Hoffmann-La Roche Inc., priority 2005, dated 2009)

The chains behind the UniProt entries cited, without tags or fusion partners.
UniProt O14965, whole entry: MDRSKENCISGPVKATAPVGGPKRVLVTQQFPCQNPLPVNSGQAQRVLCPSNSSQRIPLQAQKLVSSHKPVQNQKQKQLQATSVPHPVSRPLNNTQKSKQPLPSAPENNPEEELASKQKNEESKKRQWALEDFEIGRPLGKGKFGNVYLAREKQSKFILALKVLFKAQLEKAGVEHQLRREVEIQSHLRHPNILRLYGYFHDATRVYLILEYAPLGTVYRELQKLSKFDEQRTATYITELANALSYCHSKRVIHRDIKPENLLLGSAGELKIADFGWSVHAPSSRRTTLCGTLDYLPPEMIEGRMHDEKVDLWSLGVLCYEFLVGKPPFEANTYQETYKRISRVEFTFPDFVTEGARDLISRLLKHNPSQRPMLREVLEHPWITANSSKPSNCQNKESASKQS

Biological target: Aurora A kinase (Homo sapiens, UniProt O14965)
Test: IC50 determination for inhibitors of Aurora A kinase (ELISA, GST-Histone H3 substrate)
Conditions: read-out: IC50 Aurora A kinase inhibition; mutant Aurora A kinase, 30 μM ATP, 40 minutes
Method: IC50 Determination for Inhibitors of Aurora A Kinase
Aurora A is a Serine Threonine Kinase Involved in Spindle Assembly and Chromosome Segregation.
The assay is a typically ELISA-type assay where substrate (GST-Histone H3) is coupled to the assay-plate and is phosphorylated by the kinase. Phosphorylation is detected by a mouse anti-Phosphopeptid mAb and an HRP-labeled anti-mouse pAb. The assay is validated for IC50-determination.
Kinase activities were measured by Enzyme-Linked Immunosorbent Assay (ELISA): Maxisorp 384-well plates (Nunc) were coated with recombinant fusion protein comprising residues 1-15 of HistoneH3 fused to the N-terminus of Glutathione-S-Transferase. Plates were then blocked with a solution of 1 mg/mL I-block (Tropix cat# T2015—highly purified form of casein) in phosphate-buffered saline. […] After washing, substrate phosphorylation was detected by addition of anti-phospho-Histone H3 (Ser 10) 6G3 mAb (Cell Signaling cat #9706) and sheep anti-mouse pAb-HRP (Amersham cat# NA931V), followed by colorimetric development with TMB (3,3′,5,5′-tetramethylbenzidine from Kirkegaard & Perry Laboratories). After readout of the absorbance, IC50 values were calculated using a non-linear curve fit (XLfit® software (ID Business Solution Ltd., Guilford, Surrey, UK)).

IC50: 0.615 µM
SMILES: Fc1cccc(-c2nc(Nc3cc[nH]n3)cc3ccccc23)c1
